biological target: Tubulin (Bos taurus) (UniProt Q6B856+Q862L2+Q862F3); test: Potency index, ratio of CA-4 IC50 to compound IC50 for bovine brain tubulin by spectrophotometric method

The chains behind the UniProt entries cited, without tags or fusion partners.
UniProt Q6B856, whole entry, looked up: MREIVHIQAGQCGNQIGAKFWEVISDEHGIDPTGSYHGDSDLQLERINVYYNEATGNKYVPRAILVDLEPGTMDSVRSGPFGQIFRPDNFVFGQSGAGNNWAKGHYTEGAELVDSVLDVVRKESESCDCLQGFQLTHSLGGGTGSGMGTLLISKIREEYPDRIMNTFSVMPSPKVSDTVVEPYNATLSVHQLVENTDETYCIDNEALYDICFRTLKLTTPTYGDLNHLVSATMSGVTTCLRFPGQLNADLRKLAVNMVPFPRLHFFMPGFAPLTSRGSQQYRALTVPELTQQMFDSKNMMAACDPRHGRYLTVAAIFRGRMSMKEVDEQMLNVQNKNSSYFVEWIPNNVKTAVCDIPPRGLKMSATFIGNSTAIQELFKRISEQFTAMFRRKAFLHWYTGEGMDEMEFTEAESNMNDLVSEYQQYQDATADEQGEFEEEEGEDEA

Ratio IC50	SMILES
1.5	COc1ccc(-c2c[nH]nc2-c2cc(OC)c(OC)c(OC)c2)cc1
1.5	COc1ccc(-c2n[nH]cc2-c2cc(OC)c(OC)c(OC)c2)cc1

More lines, now with the values behind:

SMILES	Ratio IC50
CCOc1ccc(-c2n[nH]cc2-c2cc(OC)c(OC)c(OC)c2)cc1	1.5
CCOc1ccc(-c2c[nH]nc2-c2cc(OC)c(OC)c(OC)c2)cc1	1.5
CCOc1ccc(-c2c[nH]nc2-c2cc(OC)c(OC)c(OC)c2)cc1Cl	1.5
COc1cc(-c2n[nH]cc2-c2ccc(C)cc2)cc(OC)c1OC	1.5

From ChEMBL document CHEMBL4406823 (Eur J Med Chem, 2019)
